The values that follow come from patent US20210246109A1, “POTENT AND SELECTIVE INHIBITORS OF CYTOCHROME P450” (University of Kentucky Research Foundation, priority 2020, published 2021).

Protein sequences, listed by entry. Tags and fused reporters are not part of them. Residues count along the entry.
UniProt P05177, 2-516: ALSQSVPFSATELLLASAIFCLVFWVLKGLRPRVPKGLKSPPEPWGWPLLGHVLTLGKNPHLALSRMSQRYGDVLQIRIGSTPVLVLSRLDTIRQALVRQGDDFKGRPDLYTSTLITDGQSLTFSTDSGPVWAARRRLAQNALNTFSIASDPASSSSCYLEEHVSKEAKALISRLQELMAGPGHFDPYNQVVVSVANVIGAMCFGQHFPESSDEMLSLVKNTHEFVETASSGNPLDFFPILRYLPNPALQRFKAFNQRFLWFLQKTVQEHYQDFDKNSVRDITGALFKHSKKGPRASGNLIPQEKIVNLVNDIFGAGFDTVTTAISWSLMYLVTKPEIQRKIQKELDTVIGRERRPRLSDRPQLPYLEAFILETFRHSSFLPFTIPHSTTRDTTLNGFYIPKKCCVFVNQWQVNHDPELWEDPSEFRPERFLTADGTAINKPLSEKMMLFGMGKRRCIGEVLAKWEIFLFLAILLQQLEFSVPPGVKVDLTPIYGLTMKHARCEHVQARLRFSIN

One may read the IC50 as the concentration that inhibits the measured activity by half.

Where two headings read alike, the source gives them in different places.

For data set [1], the target named is T1, CYP1A1 (Homo sapiens, UniProt P04798).
T1 construct: expressed in transfected cells
T1 sequence (P04798 1-512): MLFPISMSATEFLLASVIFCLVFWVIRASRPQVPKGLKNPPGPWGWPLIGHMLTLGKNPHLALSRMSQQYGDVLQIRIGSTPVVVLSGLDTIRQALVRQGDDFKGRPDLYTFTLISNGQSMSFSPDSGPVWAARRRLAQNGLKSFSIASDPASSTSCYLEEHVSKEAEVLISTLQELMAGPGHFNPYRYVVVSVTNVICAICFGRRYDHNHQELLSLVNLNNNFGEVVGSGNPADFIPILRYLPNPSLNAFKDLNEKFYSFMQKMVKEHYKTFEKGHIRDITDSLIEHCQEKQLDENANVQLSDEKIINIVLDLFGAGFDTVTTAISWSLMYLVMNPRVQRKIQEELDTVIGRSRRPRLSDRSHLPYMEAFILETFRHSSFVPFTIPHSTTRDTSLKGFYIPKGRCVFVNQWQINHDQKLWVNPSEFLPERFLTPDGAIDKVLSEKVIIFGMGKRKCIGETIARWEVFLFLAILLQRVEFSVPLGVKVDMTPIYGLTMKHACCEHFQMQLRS
Nature of the data set: EROD assay in CYP1A1 counter-screen cell line. The note with it: for SI 1B1:1A1: selectivity index. The class given is cell-based. (The purpose of a counterscreen is to sort out artefacts and off-target activity.)

The target of data set [2] is T2, CYP1B1 (Homo sapiens, UniProt Q16678).
T2 construct: expressed in transfected cells
T2 sequence (Q16678 1-543): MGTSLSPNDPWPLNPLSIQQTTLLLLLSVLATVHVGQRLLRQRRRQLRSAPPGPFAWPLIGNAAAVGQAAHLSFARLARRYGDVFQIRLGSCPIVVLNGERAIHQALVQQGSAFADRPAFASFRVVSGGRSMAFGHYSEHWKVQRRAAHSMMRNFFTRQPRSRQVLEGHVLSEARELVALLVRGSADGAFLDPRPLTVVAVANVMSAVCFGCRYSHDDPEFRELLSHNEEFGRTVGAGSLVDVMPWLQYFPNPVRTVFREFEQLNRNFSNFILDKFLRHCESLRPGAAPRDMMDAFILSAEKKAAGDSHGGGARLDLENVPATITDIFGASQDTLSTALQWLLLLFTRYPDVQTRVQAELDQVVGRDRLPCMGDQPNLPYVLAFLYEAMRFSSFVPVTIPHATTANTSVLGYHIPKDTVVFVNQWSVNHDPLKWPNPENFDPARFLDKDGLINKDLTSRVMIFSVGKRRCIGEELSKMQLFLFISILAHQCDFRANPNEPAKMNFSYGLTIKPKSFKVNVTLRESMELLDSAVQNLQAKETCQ
Briefly: EROD assay in inducible CYP1B1 cell line. The data set is classed as cell-based. The note with it: Table 2.

In data set [3] the target is pooled human liver microsomes (pHLMs) (Homo sapiens, UniProt P05177). Briefly: EROD counterscreen in pooled human liver microsomes. The data set is classed as biochemical. The note with it: selectivity index.
[4] abbreviates: Table 2, EROD assay, read-out: IC50 CYP1A1.

Consider `COc1ccc(-c2csc(-c3ccc(OC)cc3OC)n2)cc1` [GL679], for which the half-inhibitory concentration (IC50) in data set [1] (setting [4]) came to 2880 nM; in data set [2] it was 25 nM.

Consider `COc1ccc(-c2nc(-c3ccc(C#N)cc3)cs2)c(OC)c1` [GL662], for which the concentration for half-maximal inhibition (IC50) in data set [1] (setting [4]) stood at 525 nM; in data set [2], 0.0208 nM. The “SI 1B1:1A1” value in data set [1] was 25259.

On to `COc1ccc(-c2nc(-c3cccnc3)cs2)c(OC)c1` [GL661], for which, in data set [1] (IC50 CYP1A1, Table 2, EROD assay), the IC50 came out at 25.5 nM. For the same molecule, the “SI 1B1:1A1” value in data set [1] is given as 4.7. Further, the “SI 1B1:HLM” value in data set [3] was 0.0015.

`COc1cc(/C=C/c2ccc(OC)cc2OC)cc(OC)c1` [TMS, reference compound]: the IC50 is 1500 nM in data set [1] (Table 1, read-out: CYP1A1 IC50) and 1500 nM in data set [1] (Table 3, read-out: IC50 1A1).

Consider `COc1ccc(-c2csc(-c3ccc(OC)cc3OC)n2)c(OC)c1` [GL660], for which the figures for the IC50 in data set [1] (setting [4]) and in data set [2] were 5650 nM and 6.2 nM, respectively.

On to `COc1ccc(-c2nc(-c3ccc(O)cc3)cs2)c(OC)c1` [GL673], for which the 50% inhibitory concentration (IC50) in data set [1] (setting [4]) is 1980 nM.
